“And” between values parts separate entries of the source, which are not always exact repeats. Equal values may be shown once.
Assays:
M. bovis bovinus 8 = type: in vivo; details: TB drug combined with the new treatment vs TB drug monotherapy; mice
[1] = test system: peritoneal macrophages (pMP); parameters: species or system mice; details: mouse, in vivo

Row | Compound | improvement of the indices of lung damage (morphological) (M. bovis bovinus 8) | also measured
1 | CC[C@@H](CO)NCCN[C@@H](CC)CO [Ethambutol, ethambutol] | 3.19% | 
2 | NNC(=O)c1ccncc1 [Isoniazid, isonicotinic acid hydrazide] | 10.1% | 
3 | CC1COc2c(N3CCN(C)CC3)c(F)cc3c(=O)c(C(=O)O)cn1c23 (stereo not drawn) [Ofloxacin] | 3.24% | 
4 | CO[C@H]1/C=C/O[C@@]2(C)Oc3c(C)c(O)c4c(c3C2=O)C2=NC3(CCN(CC(C)C)CC3)NC2=C(NC(=O)/C(C)=C\C=C\[C@H](C)[C@H](O)[C@@H](C)[C@@H](O)[C@@H](C)[C@H](OC(C)=O)[C@@H]1C)C4=O [Rifabutin, rifabutin] |  | increase of the index of lung damage (morphological) (M. bovis bovinus 8): 15.9%
5 | CO[C@H]1/C=C/O[C@@]2(C)Oc3c(C)c(O)c4c(O)c(c(/C=N/N5CCN(C)CC5)c(O)c4c3C2=O)NC(=O)/C(C)=C\C=C\[C@H](C)[C@H](O)[C@@H](C)[C@@H](O)[C@@H](C)[C@H](OC(C)=O)[C@@H]1C [Rifampicin, rifampicin] |  | increase of pMP phagocytosis [1]: 1.4 fold; mean macrophagal activity of pMP [1]: 71.43 and 99.12

Reference: US9750727B2 (priority 2010, dated 2017)
